For the assay, the target named is T1, propionyl-CoA transferase from Clostridium propionicum (PCTCp), wild type, SEQ ID NO: 14 (Anaerotignum propionicum, UniProt Q9L3F7).
T1 sequence (Q9L3F7 with tags, fused parts or gaps): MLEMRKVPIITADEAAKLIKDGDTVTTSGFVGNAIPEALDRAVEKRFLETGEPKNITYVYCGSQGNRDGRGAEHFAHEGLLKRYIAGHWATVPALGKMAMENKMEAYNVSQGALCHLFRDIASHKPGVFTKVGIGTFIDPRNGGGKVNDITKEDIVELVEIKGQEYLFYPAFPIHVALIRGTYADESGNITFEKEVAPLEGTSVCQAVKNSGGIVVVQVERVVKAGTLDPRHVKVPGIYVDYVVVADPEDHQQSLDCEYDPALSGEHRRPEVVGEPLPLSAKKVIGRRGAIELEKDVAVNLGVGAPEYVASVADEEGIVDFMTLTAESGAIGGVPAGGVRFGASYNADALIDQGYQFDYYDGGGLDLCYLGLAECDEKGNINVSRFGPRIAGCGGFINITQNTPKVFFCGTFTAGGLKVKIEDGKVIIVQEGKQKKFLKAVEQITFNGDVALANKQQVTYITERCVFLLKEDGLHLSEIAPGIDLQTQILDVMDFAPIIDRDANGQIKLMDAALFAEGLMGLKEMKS
To be noted: 37° C., pH 7.5, 2 mM acetyl-CoA; n=1 (preliminary result).

From patent US10781456B2, “Carbon-neutral and carbon-positive photorespiration bypass routes supporting higher photosynthetic rate and yield” (Max-Planck-Gesellschaft zur Förderung der Wissenschaften …, priority 2015, dated 2020) come the findings set out here.

Each structure is given as a SMILES string.

Regarding `O=C(O)CO` [glycolate], the vmax amounted to 31.6±2.7 mU mg^−1.
